According to ChEMBL document CHEMBL1136225, “Selective 3-amino-2-pyridinone acetamide thrombin inhibitors incorporating weakly basic partially saturated heterobicyclic P1-arginine mimetics” (Bioorg Med Chem Lett, 2003):

Target: Prothrombin (Homo sapiens, UniProt P00734)
Test: Inhibitory activity against thrombin
In short: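 Amidolytic enzyme assays with chromogenic substrates for thrombin, trypsin and factor Xa; Ki derived from IC50 by Cheng–Prusoff, or from reaction velocity equations with and without inhibitor using the relevant Km.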

Ki: 25 µM
SMILES: Cc1ccc(NS(=O)(=O)Cc2ccccc2)c(=O)n1CC(=O)NC1CCc2nn(C)cc2C1 (stereo unspecified)
